The target in the assay is T1, human HDAC1 (Homo sapiens, UniProt Q13547).
T1 construct: purchased ENZO Life Sciences AG (Lausen, CH)
Nature of the assay: In vitro HDAC enzymatic assay, HDAC1. The format is biochemical. Particulars: mean ± SD.

Chains of the proteins cited; added tags and fusions are not shown.
UniProt Q13547, whole entry: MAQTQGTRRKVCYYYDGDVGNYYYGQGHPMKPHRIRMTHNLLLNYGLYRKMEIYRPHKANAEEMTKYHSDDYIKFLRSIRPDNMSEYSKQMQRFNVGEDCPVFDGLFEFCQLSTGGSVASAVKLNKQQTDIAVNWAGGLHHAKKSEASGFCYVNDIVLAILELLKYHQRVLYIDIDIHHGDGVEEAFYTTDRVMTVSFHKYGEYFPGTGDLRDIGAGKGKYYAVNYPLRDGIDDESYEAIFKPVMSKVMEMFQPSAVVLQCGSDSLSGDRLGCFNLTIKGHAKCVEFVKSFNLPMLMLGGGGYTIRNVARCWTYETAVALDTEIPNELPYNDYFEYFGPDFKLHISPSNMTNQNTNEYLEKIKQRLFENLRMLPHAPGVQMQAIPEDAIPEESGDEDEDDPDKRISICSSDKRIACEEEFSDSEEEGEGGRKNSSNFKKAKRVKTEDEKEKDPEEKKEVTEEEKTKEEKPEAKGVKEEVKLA

Our source for the IC50 values is paper PMC10687260, “1,3-Diphenylureido hydroxamate as a promising scaffold for generation of potent antimalarial histone deacetylase inhibitors” (Scientific Reports, 2023).

In the case of `O=C(/C=C/c1ccc(NC(=O)Nc2ccc(Cl)cc2)cc1)NO` [Compound 6b, (E)-3-(4-(3-(4-chlorophenyl)ureido)phenyl)-N-hydroxyacrylamide], 2720 ± 281 nM corresponded to half-maximal inhibition (IC50).
